Yeast mating assay 2: variants of the scFv Ab-91

Data: MIT Lincoln Laboratory AlphaSeq set, Engelhart et al. 2022, doi:10.1038/s41597-022-01779-4, as distributed in FLAb.

The target is the same throughout: PDVDLGDISGINAS, from the HR2 region of SARS-CoV-2 spike.

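The library (AAYL51) carries one to three amino acid substitutions per variant, with no insertions or deletions. Affinity was read by AlphaSeq, a pooled yeast mating assay with surface-displayed partners. The frequency of each diploid, read from paired DNA barcodes, reflects how well the two displayed proteins bind. Read counts were normalised to the haploid input and turned into Kd by a linear fit to BCL2-family pairs of known affinity, for each replicate. There are three technical replicates.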

The variants keep the light chain, the linker and the frameworks of Ab-91 (scFv order VL, a 15-residue (Gly4Ser)3 linker, VH).
VL: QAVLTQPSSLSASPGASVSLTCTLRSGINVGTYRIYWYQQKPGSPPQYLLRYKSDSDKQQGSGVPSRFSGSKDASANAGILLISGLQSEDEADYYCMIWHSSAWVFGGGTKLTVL
VH: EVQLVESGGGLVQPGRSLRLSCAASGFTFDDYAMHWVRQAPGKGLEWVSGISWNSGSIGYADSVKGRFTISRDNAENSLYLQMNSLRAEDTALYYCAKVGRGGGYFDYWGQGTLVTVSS

Sequences are complete VH domains. All variants listed here change F106 of the VH, counted from its first residue. Affinities are written as log10 Kd with Kd in nM; a lower number is a better binder. Where no diploid with the target was found in that replicate, the entry reads "ND": below detection, most likely a poor binder, though not proof of it. Background: pairings of library AAYL51 with three empty control strains gave a value in 21% of cases (median 4.54, 5th percentile 3.26). Values in that range, when seen in few replicates, are hard to tell from nonspecific mating. For reference, the parent read 1.86 as the reference entry and 0.88 as a member of this library.

For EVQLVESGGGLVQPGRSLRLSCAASGFTKDDYAMHWVRQAPGKGLEWVSGISWNSGAIGYADSVKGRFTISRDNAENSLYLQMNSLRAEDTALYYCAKVGRGGGYADYWGQGTLVTVSS, the assay gave ND, 5.73, ND. With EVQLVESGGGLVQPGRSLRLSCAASGFTFDDYAMHWVRQAPGKGLEWVSGISWNSGSIGYADSVKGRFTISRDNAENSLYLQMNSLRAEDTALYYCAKVGRGGKYVDYWGQGTLVTVSS the result was 6.06, 6.45, ND. For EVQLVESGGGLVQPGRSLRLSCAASGFTFDDYAMHWVRQAPGKGLEWVSGITWNSGSYGYADSVKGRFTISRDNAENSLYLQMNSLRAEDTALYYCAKVGRGGGYPDYWGQGTLVTVSS, the assay gave 4.63, 4.49, ND. Variant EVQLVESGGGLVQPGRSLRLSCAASGFTFDDYAYHWVRQAPGKGLEWVSGISWNSGSIGYADSVKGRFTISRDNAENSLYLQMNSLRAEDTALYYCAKAGRGGGYADYWGQGTLVTVSS gave ND, ND, ND. With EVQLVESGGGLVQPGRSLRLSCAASGFTFDDEAMHWVRQAPGKGLEWVSGISWNSGSIGYADSVIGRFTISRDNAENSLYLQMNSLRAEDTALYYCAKVGRGGGYHDYWGQGTLVTVSS the result was ND, ND, ND. Variant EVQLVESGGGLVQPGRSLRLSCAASGFTFDDYAMHWVRQAPGKGLEWVSGISWNSGSIGYADKVKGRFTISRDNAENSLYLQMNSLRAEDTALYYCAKVGRGGGYHDYWGQGTLVTVSS gave 4.11, ND, ND.

With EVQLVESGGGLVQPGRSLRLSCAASGFTFDSYANHWVRQAPGKGLEWVSGISWNSGSIGYADSVKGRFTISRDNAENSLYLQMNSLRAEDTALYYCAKVGRGGGYTDYWGQGTLVTVSS the result was ND, ND, ND. Variant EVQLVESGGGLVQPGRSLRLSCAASFFTFDDYAMHWVRQAPGKGLEWVSGISWNSGSIGYADSVKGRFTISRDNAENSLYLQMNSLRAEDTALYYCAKVGRCGGYYDYWGQGTLVTVSS showed 4.62, 5.80, ND. With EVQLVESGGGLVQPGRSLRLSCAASWFTNDDYAMHWVRQAPGKGLEWVSGISWNSGSIGYADSVKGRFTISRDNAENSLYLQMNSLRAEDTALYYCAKVGRGGGYCDYWGQGTLVTVSS the result was ND, 3.89, ND. Variant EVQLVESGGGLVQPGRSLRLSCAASGFTFDDYAMHWVRQAPGKGLEWVSGISWNSGSIGYADSAKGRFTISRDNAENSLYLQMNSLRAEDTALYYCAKVGRGGGRPDYWGQGTLVTVSS showed 4.41, 3.99, 2.88. With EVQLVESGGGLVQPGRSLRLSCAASGFTFDDYAIHWVRQAPGKGLEWVSGISWNSGSIGYADSVKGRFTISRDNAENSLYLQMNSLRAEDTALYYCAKVGRGGGYADYWGQGTLVTVSS the result was 4.36, ND, ND. Variant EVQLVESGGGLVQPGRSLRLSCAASGHTFDDTAMHWVRQAPGKGLEWVSGISWNSGSIGYADSVKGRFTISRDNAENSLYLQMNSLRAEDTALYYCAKVGRGGGYQDYWGQGTLVTVSS gave ND, ND, ND.

With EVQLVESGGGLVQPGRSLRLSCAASWFTFDDYAMHWVRQAPGKGLEWVSGISWNSGSIGYADSVKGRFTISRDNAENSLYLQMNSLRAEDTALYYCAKVGRGGGYDDEWGQGTLVTVSS the result was ND, ND, ND. Variant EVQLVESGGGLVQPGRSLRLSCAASGFTFDDYAMHWVRQAPGKGLEWVSGISWNSGSIGYADSVKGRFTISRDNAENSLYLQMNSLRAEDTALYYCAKAFRGGGYDDYWGQGTLVTVSS showed 3.33, 3.97, 2.83. Variant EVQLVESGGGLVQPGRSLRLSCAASGFTFDDYAMHWVRQAPGKGLEWVSGWSWNSGSIGYADSVKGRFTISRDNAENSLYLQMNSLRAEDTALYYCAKVGRGGGYIDYWGQGTLVTVSS showed 3.45, ND, ND. Variant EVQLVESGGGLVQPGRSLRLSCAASGFTFDDYAMHWVRQAPGKGLEWVSGISWNSGSIGYADSVKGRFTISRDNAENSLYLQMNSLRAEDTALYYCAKTGFGGGYSDYWGQGTLVTVSS showed 2.50, ND, ND. For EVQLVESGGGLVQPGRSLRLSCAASGFEFDDYAMHWVRQAPGKGLEWVSGISWNSKSIGYADSVKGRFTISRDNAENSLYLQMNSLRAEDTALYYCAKVGRGGGYVDYWGQGTLVTVSS, the assay gave ND, 6.76, ND. With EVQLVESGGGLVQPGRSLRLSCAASGFTFDDYAMHWVRQAPGKGLEWVSGISWNSGSIGYADSVKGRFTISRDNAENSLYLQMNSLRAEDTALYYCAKVGRHGGYIDYWGQGTLVTVSS the result was 6.68, 5.87, 4.80.

Top 2 of the variants detected in all replicates, tightest first:

The variant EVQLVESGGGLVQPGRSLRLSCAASGFTFDDYAMHWVRQAPGKGLEWVSGISWNSGSIGYADSVKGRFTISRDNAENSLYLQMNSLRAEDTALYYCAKAFRGGGYDDYWGQGTLVTVSS showed 3.33, 3.97, 2.83.
The variant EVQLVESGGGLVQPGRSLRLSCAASGFTFDDYAMHWVRQAPGKGLEWVSGISWNSGSIGYADSAKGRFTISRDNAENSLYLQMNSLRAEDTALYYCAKVGRGGGRPDYWGQGTLVTVSS showed 4.41, 3.99, 2.88.